Article PMC9866339, “In Silico and In Vitro Study of Janus Kinases Inhibitors from Naphthoquinones” (Molecules, 2023)

Tested on: HEL cells
Assay: Presto Blue cytotoxicity assay on HEL cells
Conditions: 10 μM, result in words

O=C1C=CC(=O)c2c(O)cccc21 [Juglone, juglone]
Cytotoxicity screening on HEL cells: high cytotoxicity
